{"source": "patent US7678762B2", "about": "“Methods for reducing the risk of hypoglycemia” (DiObex, Inc., priority 2002, dated 2010)", "key": {"[1]": {"test": "Continuous subcutaneous very low dose glucagon infusion in insulin-treated patients: glucagon and glucose blood levels (Example 7)", "details": "human, in vivo, sc"}, "[2]": {"system": "patients with Type 1 diabetes", "test": "Continuous subcutaneous very low dose glucagon infusion in insulin-treated patients: glucagon and glucose blood levels (Example 7)"}, "[3]": {"details": "subcutaneous glucagon; cited from earlier work"}}, "data": [{"smiles": "CSCC[C@H](NC(=O)[C@H](CC(C)C)NC(=O)[C@H](Cc1c[nH]c2ccccc12)NC(=O)[C@H](CCC(N)=O)NC(=O)[C@@H](NC(=O)[C@H](Cc1ccccc1)NC(=O)[C@H](CC(=O)O)NC(=O)[C@H](CCC(N)=O)NC(=O)[C@H](C)NC(=O)[C@H](CCCN=C(N)N)NC(=O)[C@H](CCCN=C(N)N)NC(=O)[C@H](CO)NC(=O)[C@H](CC(=O)O)NC(=O)[C@H](CC(C)C)NC(=O)[C@H](Cc1ccc(O)cc1)NC(=O)[C@H](CCCCN)NC(=O)[C@H](CO)NC(=O)[C@H](Cc1ccc(O)cc1)NC(=O)[C@H](CC(=O)O)NC(=O)[C@H](CO)NC(=O)[C@@H](NC(=O)[C@H](Cc1ccccc1)NC(=O)[C@@H](NC(=O)CNC(=O)[C@H](CCC(N)=O)NC(=O)[C@H](CO)NC(=O)[C@@H](N)Cc1c[nH]cn1)[C@@H](C)O)[C@@H](C)O)C(C)C)C(=O)N[C@@H](CC(N)=O)C(=O)N[C@H](C(=O)O)[C@@H](C)O", "note": "[glucagon]", "values": [{"measurement": "Cmax", "setting": "[1]; 12 ng/kg/min", "value": 0.185, "unit": "ng/mL"}, {"measurement": "Tmax", "setting": "[1]; 16 ng/kg/min", "value": "≤ 3", "unit": "h"}, {"measurement": "change of blood glucagon levels", "setting": "[2]; 8 ng/kg/min. s.c. continuous infusion", "value": "approximately doubling"}, {"measurement": "peak mean plasma glucagon level", "setting": "[2]; 16 ng/kg/min. s.c. for 9 hours, two patients", "value": "about 254 pg/mL"}, {"measurement": "peak plasma glucagon levels compared with the 12 ng/kg/min. dose", "setting": "[2]; 16 ng/kg/min. s.c., both subjects", "value": "higher"}, {"measurement": "time to peak levels", "setting": "[3]", "value": "15 to 30", "unit": "min"}]}]}
